Reference: publication PMC8286831, “Identifying SARS-CoV-2 antiviral compounds by screening for small molecule inhibitors of nsp13 helicase” (Biochemical Journal, 2021)

Target: SARS-CoV-2 nsp13 helicase (Severe acute respiratory syndrome coronavirus 2, UniProt P0DTD1)
Assay type: biochemical
Conditions: read-out: IC50 No detergent

O=C(Nc1cccc(C(=O)Nc2ccc(S(=O)(=O)[O-])c3cc(S(=O)(=O)[O-])cc(S(=O)(=O)[O-])c23)c1)Nc1cccc(C(=O)Nc2ccc(S(=O)(=O)[O-])c3cc(S(=O)(=O)[O-])cc(S(=O)(=O)[O-])c23)c1.[Na+].[Na+].[Na+].[Na+].[Na+].[Na+] [NF 023]
IC50: 1.1 µM
